Measured values taken from PMC11826995, “Modulation of Protein–Protein Interactions with Molecular Glues in a Synthetic Condensate Platform” (Journal of the American Chemical Society, 2025).

The chains behind the UniProt entries cited, without tags or fusion partners. Residues count along the entry.
UniProt P37231, 235-505: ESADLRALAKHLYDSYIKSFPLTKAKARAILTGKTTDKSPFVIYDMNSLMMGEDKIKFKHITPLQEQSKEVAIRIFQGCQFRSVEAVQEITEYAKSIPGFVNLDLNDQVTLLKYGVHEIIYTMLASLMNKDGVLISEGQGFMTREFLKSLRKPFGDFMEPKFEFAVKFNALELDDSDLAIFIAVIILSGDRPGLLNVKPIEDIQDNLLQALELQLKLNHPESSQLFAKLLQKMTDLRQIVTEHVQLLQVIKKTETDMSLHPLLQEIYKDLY

Molecular target: T1, PPARγ/PRIPRAP (Homo sapiens, UniProt P37231)
T1 construct: made in house; host or cells: bacterial culture with IPTG induction
Assay: Confocal microscopy of PRIPRAP coregulator recruitment to PPARγ-loaded condensates
Assay type: biochemical
Conditions: 10 μM ligand, 100 nM PRIPRAP, 400 nM PPARγ, overnight

## MRL-24
  PRIPRAP recruitment to PPARγ-loaded condensates relative to DMSO control: significant recruitment of PRIPRAP
